A selection: hits, their analogues and other compounds. The true share with any hit is near 16%.
uPA surface inh – cell surface uPA generation inhibition | cell surface uPA generation assay, qHTS | AID 540303 | 330,000 compounds, 0.31% hits | Potency, µM (series often up to 38.3 µM), actives largely listed as inhibitors; active = well fitted inhibition curve with a large enough effect; inconclusive = small, poorly fitted or top-dose-only effect; inactive = no such curve, though single readings can be large or run the other way; tested in mouse RAW 264.7 cells; also: nearly all actives have a fitted effect of over 55% in size
TDP1 inh – inhibitors of human tyrosyl-DNA phosphodiesterase TDP1 | Q9NUW8 | recombinant TDP1, AlphaScreen DNA substrate cleavage | Potency, µM (doses to about 130 µM), actives largely listed as inhibitors | 350,000 compounds, 0.28% hits | AID 485290; also: nearly all actives have a fitted effect of over 40% in size
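Here, a 5' biotin and 3' phosphotyrosine-FITC DNA oligonucleotide reports Tdp1 activity: intact substrate bridges AlphaScreen beads, while cleavage leaves a 3' phosphate and drops signal. All incubations at room temperature.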
DT40 TDP1 no CPT – qHTS for Inhibitors of human tyrosyl-DNA phosphodiesterase 1 (TDP1): qHTS in cells in absence of CPT; DT40 Tdp1-/- hTDP1 cells, no CPT, ATP luminescence, 48 h; Potency, µM (highest dose often 46.2 µM), actives largely listed as inhibitors; 420,000 compounds, 15% hits; AID 686978, 2013; also: nearly all actives have a fitted effect of over 55% in size
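DT40 Tdp1-/-;hTDP1 cells, no CPT (DMSO vehicle only), 400 cells/well; compounds pin-transferred; ≥48 hr, 37 °C; CellTiter-Glo 30 min RT dark, luminescence read.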
miR-21 FLuc – miR-21 reporter, rising signal; Potency, µM (titrated, usually from 38.3 µM); AID 2288; 340,000 tested, under 10 active; HeLa miR-21 FLuc reporter, luciferase, 48 h; active = well fitted rising curve with a large enough effect; inconclusive = small, poorly fitted or top-dose-only effect; inactive = no such curve, though single readings can be large or run the other way;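 note: miR-21 action dims this reporter so a rising signal means less miR-21 action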
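Using DMEM plus 10% FBS, HeLa miR-21-FLuc cells are incubated with test compounds (final up to about 40uM) for 48 hours; firefly luciferase signal is then imaged following reagent-mediated lysis.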
TDP1 cell CPT – growth inhibition of DT40 Tdp1-/-;hTDP1 cells with camptothecin (screen for TDP1 inhibitors) | 420,000 compounds, 12% hits | chicken DT40 Tdp1-/-;hTDP1 cells + 20 nM CPT, ATP luminescence, 48 h | Potency, µM (titrated, usually from 46.2 µM), usual class: inhibitors; also: nearly all actives have a fitted effect of over 55% in size
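Cell growth measured by CellTiter-Glo luminescence after a minimum 48 h, 37 C compound exposure with 20 nM CPT in Tdp1-knockout DT40 cells stably expressing hTDP1, seeded 400/well; qHTS titration format.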
A number is an active result; - = inactive; ? = inconclusive; . = no result given. Unless noted, calls follow the shape of the dose curve; as a rule, active = well fitted curve in the direction sought with a large enough effect; inconclusive = small, poorly fitted or top-dose-only effect, or another doubt; inactive = no such curve, though single readings can be large; an effect the other way counts as inactive or inconclusive.

SMILES	uPA surface inh	TDP1 inh	DT40 TDP1 no CPT	miR-21 FLuc	TDP1 cell CPT
COc1ccccc1N1C(=O)S/C(=C\c2cc(C)n(C)c2C)C1=O	-	-	?	-	?
COc1ccc(N=C2S/C(=C\c3cc(C)n(C)c3C)C(=O)N2C)cc1	-	-	6.51µM	-	?
COCCn1cc(C(=O)NCCN(C)C)c2c3ccccc3n(C)c2c1=O	-	.	?	-	-
CC(=O)Nc1ccc(C(=S)NCc2ccco2)cc1	-	-	-	-	-
CC(=O)Nc1ccc(-c2ccnc3c2CC(C(=O)NCc2ccco2)O3)cc1 (stereo not given)	.	.	0.0065µM	.	0.184µM
CC(=O)Nc1ccc(-c2ccnc3c2CC(C(=O)NCc2ccccc2)O3)cc1 (stereo not given)	.	.	0.0184µM	.	0.0231µM
COc1ccc(Cl)cc1C(=O)NCCS(=O)(=O)N1CCN(c2ccccc2F)CC1	-	-	?	-	?
COc1ccccc1N1CCN(S(=O)(=O)CCNC(=O)c2cc(OC)c(OC)c(OC)c2)CC1	12.6µM	-	?	-	?
COc1ccccc1N1CCN(S(=O)(=O)CCNC(=O)c2cc(=O)c3ccccc3o2)CC1	-	-	25.9µM	-	?
COc1ccc(Cl)cc1C(=O)NCCS(=O)(=O)N1CCN(c2ccccc2OC)CC1	.	-	18.4µM	-	?
COC(=O)c1cccnc1-n1c(=O)c2cccnc2n(Cc2ccc([N+](=O)[O-])cc2)c1=O	-	-	?	-	-
COc1ccc(NC(=O)c2sc3nc(N4CCOCC4)c4c(c3c2N)CCCC4)c(OC)c1	-	-	-	-	-
CC1(C)Cc2c(c(N3CCOCC3)nc3sc(C(=O)Nc4cccc(Cl)c4)c(N)c23)CO1	-	-	?	-	18.4µM
CC1(C)Cc2c(c(N3CCOCC3)nc3sc(C(=O)Nc4ccccc4)c(N)c23)CO1	-	-	?	-	?
Cc1cccc(NC(=O)c2sc3nc(N4CCOCC4)c4c(c3c2N)CC(C)(C)OC4)c1	.	-	7.31µM	-	?
Nc1c(C(=O)Nc2ccc(Br)cc2)sc2nc(N3CCOCC3)c3c(c12)CCCC3	.	.	?	.	20.6µM
CCC(C)OC(=O)C1=C(C)O[C@]23OC(N)=C(C#N)[C@]12C(=O)c1ccccc13 (stereo not given in full)	-	-	-	-	?
Cc1cccc(NS(=O)(=O)c2cccc(C(=O)NCCCN3CCCC3=O)c2)c1	-	.	-	.	-
CC(C)c1cc(CNC(=O)c2cc(COc3cncc(Cl)c3)on2)on1	-	.	18.4µM	-	?
COc1ccc(S(=O)(=O)c2cn(C)c3cc(N4CCCC4)c(F)cc3c2=O)cc1	.	-	23.1µM	-	?
Cn1cc(S(=O)(=O)c2ccccc2)c(=O)c2cc(Cl)ccc21	-	-	?	-	16.4µM
CC1CCCN(c2cc3c(cc2F)c(=O)c(S(=O)(=O)c2cccc(Cl)c2)cn3C)C1 (stereo not given)	.	-	23.1µM	-	?
Cn1cc(S(=O)(=O)c2ccc(Cl)cc2)c(=O)c2cc(F)c(N3CCCC3)cc21	.	-	16.4µM	-	20.6µM
Cn1cc(S(=O)(=O)c2cccc(Cl)c2)c(=O)c2cc(F)c(N3CCN(c4ccccc4)CC3)cc21	.	-	-	-	-
Cn1nc(C(=O)Nc2nc3ccc(S(C)(=O)=O)cc3s2)ccc1=O	-	-	?	-	?
SMILES	uPA surface inh	TDP1 inh	DT40 TDP1 no CPT	miR-21 FLuc	TDP1 cell CPT
Cc1ccc2c(c1)[C@H]1[C@H](CO2)[C@H](c2ccccc2)[C@]2(C)C(=O)N(Cc3ccco3)CC(=O)N12	-	-	?	.	?
Cc1ccc(C)c(Nc2cc(C(=O)NCc3cccnc3)c3ccccc3n2)c1	-	-	?	-	?
Cn1c(=O)c2c(nc(NCc3ccc4c(c3)OCO4)n2Cc2ccc(F)cc2)n(C)c1=O	-	-	6.51µM	-	9.2µM
CCCCC(=O)NCCNc1nc2c(c(=O)n(C)c(=O)n2C)n1Cc1ccc(F)cc1	-	-	?	-	-
CCNc1nc2c(c(=O)n(C)c(=O)n2C)n1Cc1ccc(F)cc1	.	-	1.03µM	-	2.06µM
Cn1c(=O)c2c(nc(NCc3ccc4c(c3)OCO4)n2Cc2ccccc2)n(C)c1=O	-	-	?	-	?
CC[C@@H](C)C(NC(=O)OC(C)(C)C)c1cn([C@@H](Cc2ccc(O)cc2)C(=O)N2CCN(C(=O)OC(C)(C)C)CC2)nn1 (stereo not given in full)	-	-	?	-	?
Cc1cccc(N(CC(=O)NCC2CCCO2)C(=O)CNS(=O)(=O)c2ccc(Cl)cc2)c1 (stereo not given)	-	-	-	-	-
CC(C)OC(=O)c1ccc(NC(=O)CSc2nc3ncccc3[nH]2)cc1	-	-	13µM	-	8.2µM
CC(C)c1ccc(NC(=O)CSc2nc3ncccc3[nH]2)cc1	-	-	25.9µM	-	?
CC/C(C)=N\N=C\c1c(O)n(CC)c2cc(C3=NNC(=O)CC3)ccc12	-	-	6.51µM	-	10.3µM
Cc1cccc(Cn2cc3c(=O)n(CC(=O)Nc4cccc(C)c4C)nc-3c3cc(F)ccc32)c1	.	-	-	-	-
Cc1ccc(OCCN2C(=O)c3ccccc3C2=O)cc1	.	-	-	-	-
Cc1cccc(OCCN2C(=O)C(=O)c3cc(C)ccc32)c1	-	-	0.461µM	-	0.366µM

Compound activity deposited in PubChem BioAssay by National Center for Advancing Translational Sciences (NCATS).
